Reference: patent publication US5935995A, “Prodrugs for the therapy of tumors and inflammatory disorders” (Heochst Aktiengesellschaft, priority 1996, dated 1999)

Protein sequences, listed by entry. Tags and fused reporters are not part of them.
UniProt P05804, whole entry: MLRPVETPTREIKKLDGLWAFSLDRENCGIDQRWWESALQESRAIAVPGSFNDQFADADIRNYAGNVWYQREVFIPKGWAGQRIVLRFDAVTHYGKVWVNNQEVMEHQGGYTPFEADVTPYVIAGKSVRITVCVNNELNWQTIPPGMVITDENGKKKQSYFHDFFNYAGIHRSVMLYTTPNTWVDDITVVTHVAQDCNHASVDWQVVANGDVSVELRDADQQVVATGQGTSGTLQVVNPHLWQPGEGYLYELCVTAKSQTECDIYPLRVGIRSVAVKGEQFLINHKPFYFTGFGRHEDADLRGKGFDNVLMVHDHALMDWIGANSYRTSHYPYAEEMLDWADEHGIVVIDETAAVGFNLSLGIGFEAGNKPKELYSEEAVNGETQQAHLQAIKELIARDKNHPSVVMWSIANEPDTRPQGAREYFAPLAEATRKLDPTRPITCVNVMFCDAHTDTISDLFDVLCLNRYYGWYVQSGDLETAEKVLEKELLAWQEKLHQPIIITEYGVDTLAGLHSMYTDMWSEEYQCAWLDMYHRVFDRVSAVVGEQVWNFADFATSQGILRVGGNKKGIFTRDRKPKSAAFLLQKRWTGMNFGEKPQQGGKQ

Target: E. coli β-glucuronidase (Sigma) (Escherichia coli, UniProt P05804)
Assay: Enzymatic cleavage of F 373 on incubation with E. coli β-glucuronidase, HPLC analysis
Settings: 37° C., pH 7.2, with β-glucuronidase, starting from F 373
Description: On incubation with b-glucuronidase, the prodrug F 373 (compound 11) is cleaved enzymatically to an aromatic nitrogen mustard gas derivative (4-[N,N-bis(2-chloroethyl)amino]phenol) (compound 7), glucuronic acid and the spacer.
The prodrug F 373 is stable in solution in anhydrous DMSO. To investigate the cleavability, […] of F 373 solution (5 mg/ml in DMSO) were treated with 180 ml of 0.02 M phosphate buffer pH 7.2 and 10 ml of E. coli β-glucuronidase (Sigma) (330 mg/ml) and the mixture was incubated at 37° C. 25 ml batches were diluted with 225 ml of 0.1 M phosphate buffer pH 3.0 (85%) and acetonitrile (15%) and immediately analyzed with the aid of the following HPLC system.
The HPLC system used consisted of a gradient pump (Gynkotek, Model 480), an autosampler (Abimed, Model 231/401), a UV detector (Beckman, Model 166, detection wavelength 212 nm) and an analysis unit (Beckman, System Gold). The separations were carried out on an RP column (Zorbax SB-C 18, 5 mm, 125×4.6 mm). The mobile phase was formed from two components according to the following scheme:
B--0.02 M phosphate buffer pH 3.0

Structure (SMILES): Oc1ccc(N(CCCl)CCCl)cc1
- peak area (HPLC) (0 min): 0
- peak area (HPLC) (1 min): 3.32
- peak area (HPLC) (5 min): 7.43
- peak area (HPLC) (7 min): 7.33
- peak area (HPLC) (10 min): 6.79
- peak area (HPLC) (15 min): 5.58
- peak area (HPLC) (25 min): 4.00
- peak area (HPLC) (60 min): 0.88
